Literature values as cited in US6197788A, “(-)-mefloquine to block puringergic receptors and to treat movement or neurodegenerative disorders” (Vernalis Research Limited, priority 1997, dated 2001).

System: striatal acetylcholine
Conditions: cited from earlier work

For CCCN1CCC[C@@H]2Cc3n[nH]cc3C[C@H]21 [quinpirole], the “in vivo release of striatal acetylcholine” value is given as “attenuate” and the “ex vivo striatum acetylcholine content” value (in vivo) is given as “increase”.
